ChEMBL document CHEMBL2390842, “Development of indole/indazole-aminopyrimidines as inhibitors of c-Jun N-terminal kinase (JNK): optimization for JNK potency and physicochemical properties” (Bioorg Med Chem Lett, 2013)

The chains behind the UniProt entries cited, without tags or fusion partners. Where a name states a change or a piece, a line headed by the entry shows the natural chain unless it says otherwise.
UniProt P45983: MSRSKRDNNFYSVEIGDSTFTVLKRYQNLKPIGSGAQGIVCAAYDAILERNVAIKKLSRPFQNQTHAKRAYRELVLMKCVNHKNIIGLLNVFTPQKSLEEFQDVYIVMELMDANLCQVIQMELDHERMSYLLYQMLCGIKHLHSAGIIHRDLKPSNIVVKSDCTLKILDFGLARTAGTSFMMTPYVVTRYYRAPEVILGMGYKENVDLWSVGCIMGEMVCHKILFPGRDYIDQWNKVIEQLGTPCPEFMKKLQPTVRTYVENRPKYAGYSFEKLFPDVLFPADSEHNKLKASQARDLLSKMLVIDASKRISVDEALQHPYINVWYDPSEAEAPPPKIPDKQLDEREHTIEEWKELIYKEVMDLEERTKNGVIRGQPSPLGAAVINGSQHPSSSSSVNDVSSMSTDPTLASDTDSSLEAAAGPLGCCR
UniProt P53779: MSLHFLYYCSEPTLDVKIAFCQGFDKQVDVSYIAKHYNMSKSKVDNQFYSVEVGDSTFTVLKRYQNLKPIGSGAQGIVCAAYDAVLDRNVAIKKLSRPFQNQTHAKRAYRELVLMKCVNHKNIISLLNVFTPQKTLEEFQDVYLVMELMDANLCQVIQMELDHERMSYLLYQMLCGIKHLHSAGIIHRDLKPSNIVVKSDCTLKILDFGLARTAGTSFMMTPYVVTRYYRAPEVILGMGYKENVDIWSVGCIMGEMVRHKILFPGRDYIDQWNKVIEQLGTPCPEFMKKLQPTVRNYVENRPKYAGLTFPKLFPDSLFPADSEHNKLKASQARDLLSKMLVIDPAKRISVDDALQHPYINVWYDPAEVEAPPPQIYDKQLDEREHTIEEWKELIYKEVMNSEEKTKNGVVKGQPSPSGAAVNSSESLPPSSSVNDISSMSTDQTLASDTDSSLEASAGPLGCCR
UniProt P45984: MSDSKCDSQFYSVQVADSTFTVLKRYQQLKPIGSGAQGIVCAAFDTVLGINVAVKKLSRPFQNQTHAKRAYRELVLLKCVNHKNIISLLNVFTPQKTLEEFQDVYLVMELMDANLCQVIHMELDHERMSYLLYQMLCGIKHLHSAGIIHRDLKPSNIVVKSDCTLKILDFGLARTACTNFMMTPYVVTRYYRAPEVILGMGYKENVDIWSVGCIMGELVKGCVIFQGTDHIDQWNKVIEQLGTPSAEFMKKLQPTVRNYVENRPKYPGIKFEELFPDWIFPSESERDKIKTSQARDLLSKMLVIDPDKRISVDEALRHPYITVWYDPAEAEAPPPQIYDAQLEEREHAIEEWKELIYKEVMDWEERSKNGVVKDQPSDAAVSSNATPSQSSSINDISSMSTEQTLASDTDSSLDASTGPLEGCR

Tests used:
[1] = molecular target: c-Jun N-terminal kinase, JNK (Homo sapiens, UniProt P45983+P53779+P45984); experiment: Inhibition of JNK-mediated c-Jun activation in TNFalpha-induced human SW1353 cells preincubated for 30 mins prior to TNFalpha treatment measured after 20 mins; format: cell-based
[2] = molecular target: T1, Mitogen-activated protein kinase 8 (Homo sapiens, UniProt P45983); experiment: Binding affinity to JNK1 (unknown origin)
[3] = molecular target: T1, Mitogen-activated protein kinase 8; experiment: Inhibition of human JNK1alpha1 using GST-tagged ATF2 as substrate preincubated for 10 mins prior to substrate addition measured after 30 mins by microplate scintillation counting analysis
[4] = molecular target: Mitogen-activated protein kinase 9 (Homo sapiens, UniProt P45984); experiment: Inhibition of human JNK2alpha2 using GST-tagged ATF2 as substrate preincubated for 10 mins prior to substrate addition measured after 30 mins by microplate scintillation counting analysis

Row | IC50 [1] [µM] | Kd [2] [nM] | IC50 [3] [nM] | IC50 [4] [nM] | Structure (SMILES)
1 | 0.24 | 0.14 | 3 |  | CS(=O)(=O)C1CCN(c2cccc3c2ccn3-c2ccnc(N[C@H]3CC[C@H](O)CC3)n2)CC1
2 | 1.3 |  | 12 | 66 | CS(=O)(=O)C1CCN(c2cccc3c2ccn3-c2ccnc(N[C@H]3CC[C@@](C)(O)CC3)n2)CC1
